The test system of the assay is DARPP-32. Kind of assay: DARPP-32 phosphorylation in mouse brain slices, immunoblotting with phosphorylation state-specific antibodies. Background: Immunoblotting shows a protein as a band on a membrane.

In US7320785B2, “Compositions and methods for modulation of DARPP-32 phosphorylation” (The Rockefeller University, priority 2001, dated 2008) one finds activity data, which are given here for 1 molecule.

Like-named read-outs stand apart in the source and are kept apart here.

As to `CCCN1CCC[C@@H]2Cc3n[nH]cc3C[C@H]21` [Quinpirole], the activity at 10 µM runs as follows: (2 min, read-out: Percent Phospho-Ser137) 135%; (2 min, read-out: Percent Phospho-Thr34) 65%; (10 min, read-out: Percent Phospho-Thr75) 112%.
